For one series, the system named is P-gp (human MDR1). As to the kind of experiment: in vitro. As to conditions: pig, LLC-PK1, pH 7.4.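 Also: 2 h incubation at 37 °C, receiver HBSS with 10 mM Hepes plus 1% BSA, LC-MS/MS of donor and receiver, recovery as receiver plus donor amount over initial donor amount.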
The next series can be described thus: in vitro. As to conditions: pig, LLC-PK1 MOCK cell monolayer (Transwell), pH 7.4.

In the case of `CCOc1ccc(NC(C)=O)cc1` [Phenacetin], the recovery at 2 h, 2 µM with P-gp (human MDR1) turned out to be 119 ± 1.31%; in the series “in vitro” it was 118 ± 2.92%.
The like results for `CC(NC(C)(C)C)C(=O)c1cccc(Cl)c1` (stereo not shown) [Bupropion] were, in that order, 104 ± 7.38% and 102 ± 4.17%.

The values above are taken from article PMC12667295, “A surrogate barrier model for high-throughput blood-brain barrier permeability prediction: integrating LLC-PK1-MOCK/MDR1 Cells and lysosomal trapping correction” (Drug Delivery, 2025).
